Chains of the proteins cited; added tags and fusions are not shown.
UniProt O95398, whole entry: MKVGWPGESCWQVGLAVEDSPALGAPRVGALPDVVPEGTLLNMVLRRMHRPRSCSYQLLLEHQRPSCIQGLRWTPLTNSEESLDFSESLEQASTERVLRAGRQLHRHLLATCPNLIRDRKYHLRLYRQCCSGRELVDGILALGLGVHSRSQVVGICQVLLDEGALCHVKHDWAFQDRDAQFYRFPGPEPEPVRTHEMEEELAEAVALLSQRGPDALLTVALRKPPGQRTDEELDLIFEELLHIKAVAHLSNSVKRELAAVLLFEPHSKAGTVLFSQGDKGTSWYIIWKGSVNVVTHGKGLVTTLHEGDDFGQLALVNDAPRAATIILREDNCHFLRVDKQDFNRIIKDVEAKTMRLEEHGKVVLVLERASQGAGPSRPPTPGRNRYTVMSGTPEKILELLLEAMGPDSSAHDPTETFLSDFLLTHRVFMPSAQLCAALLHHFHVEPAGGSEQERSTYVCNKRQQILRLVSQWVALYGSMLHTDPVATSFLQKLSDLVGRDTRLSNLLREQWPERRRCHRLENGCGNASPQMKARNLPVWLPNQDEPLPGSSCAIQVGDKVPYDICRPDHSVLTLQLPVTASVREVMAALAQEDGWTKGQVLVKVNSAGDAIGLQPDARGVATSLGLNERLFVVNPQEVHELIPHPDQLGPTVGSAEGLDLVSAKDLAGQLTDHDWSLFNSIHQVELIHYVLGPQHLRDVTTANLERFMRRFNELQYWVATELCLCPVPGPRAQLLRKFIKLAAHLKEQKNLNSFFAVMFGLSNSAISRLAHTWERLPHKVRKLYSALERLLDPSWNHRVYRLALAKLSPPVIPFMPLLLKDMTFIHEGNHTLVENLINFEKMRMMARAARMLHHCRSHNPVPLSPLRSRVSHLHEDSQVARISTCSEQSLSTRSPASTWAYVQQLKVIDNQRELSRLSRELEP

Several values for one entry are separate records, joined by “and”; a condition that tells them apart may be missing. Equal values may be shown once. The entries are a selection whose mix differs from that of the whole data set. Records with an inconclusive call do not appear. Activity calls are given as the source filed them. The call rests on the fitted dose curve; in most records, active means well fitted inhibition curve with a large enough effect; inconclusive means small, poorly fitted or top-dose-only effect; inactive means no such curve, though single readings can be large or run the other way.
The compounds below were run against Rap guanine nucleotide exchange factor 3 (Homo sapiens) (UniProt O95398) (assay: Validation qHTS for antagonist of cAMP-regulated guanine nucleotide exchange factor 3 (EPAC1)). Details: EPAC1 Rap1B-BODIPY-GDP exchange, fluorescence; at 320 µM (top of the series) unless noted.
From the text: Assay Provider (PI): Xiaodong Cheng Ph.D.
The University of Texas Medical Branch, […], TX
In multi-cellular eukaryotic organisms, the effects of cAMP are transduced by two ubiquitously-expressed intracellular cAMP receptors, the classic protein kinase A/cAMP-dependent protein kinase (PKA/cAPK) and the more recently discovered exchange protein directly activated by cAMP/cAMP-regulated guanine nucleotide exchange factor (EPAC/cAMP-GEF). Both PKA and EPAC are ubiquitously expressed in all tissues, and an increase in intracellular cAMP levels will lead to the activation of both PKA and EPAC. Therefore, careful dissections of the individual role and relative contribution of EPAC and PKA within the overall cAMP signaling in various model systems are critical for further elucidating the mechanism of cAMP signaling. To date no EPAC-specific antagonists and agonist, as well as isoform-specific agonists have been reported, and developing EPAC-specific pharmacological probes to determine the physiological functions that EPAC play in the overall cAMP-mediated signaling remains a major challenge within the research field. […]
This qHTS will be used to screen the Molecular Libraries Small Molecule Repository (MLSMR) as a concentration-titration series using the NCGC unique quantitative screening (qHTS) platform to find activators for EPAC1. […] Activators are identified by monitoring the change in fluorescence signal as the exchanged free BODIPY-GDP has a reduced fluorescence compared to Rap1-bound BODIPY-GDP. […]
Briefly, three uL of reagents (100 nM EPAC1, 250 nM RAP1B-BODIPY-GDP, 50 uM GDP) were dispensed into a 1536-well Greiner black solid-bottom medium binding assay plate. […] The assay plates were read at 5 minute intervals for 30 minutes in the ViewLux plate reader using 480nm excitation and 540nm emission filters. […]
For `CCC(=O)N(c1ccccc1)C1(COC)CCN(CCc2cccs2)CC1`, the activity change, negative = inhibition was inactive: 8.79%. For `CCC(=O)N(c1ccccc1)C1(COC)CCN(CCn2nnn(CC)c2=O)CC1`, the activity change, negative = inhibition was inactive: 31.8%. `CN(CCCl)CCCl` was tested, and the activity change, negative = inhibition was inactive: 6.63% [at 150 µM] and inactive: 16.4% [at 150 µM].

Reference: PubChem BioAssay AID1645882 (National Center for Advancing Translational Sciences (NCATS), 2021)
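Further: plate controls were DMSO for no effect and ATA control for full effect; nearly all actives have a fitted effect of over 75% in size.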
